# Source: ChEMBL document CHEMBL5346980, “1,5-Diaryl-1,2,4-triazole Ureas as New SLC-0111 Analogues Endowed with Dual Carbonic Anhydrase and VEGFR-2 Inhibitory Activities” (J Med Chem, 2023)
# The chains behind the UniProt entries cited, without tags or fusion partners.
# UniProt P35968, whole entry: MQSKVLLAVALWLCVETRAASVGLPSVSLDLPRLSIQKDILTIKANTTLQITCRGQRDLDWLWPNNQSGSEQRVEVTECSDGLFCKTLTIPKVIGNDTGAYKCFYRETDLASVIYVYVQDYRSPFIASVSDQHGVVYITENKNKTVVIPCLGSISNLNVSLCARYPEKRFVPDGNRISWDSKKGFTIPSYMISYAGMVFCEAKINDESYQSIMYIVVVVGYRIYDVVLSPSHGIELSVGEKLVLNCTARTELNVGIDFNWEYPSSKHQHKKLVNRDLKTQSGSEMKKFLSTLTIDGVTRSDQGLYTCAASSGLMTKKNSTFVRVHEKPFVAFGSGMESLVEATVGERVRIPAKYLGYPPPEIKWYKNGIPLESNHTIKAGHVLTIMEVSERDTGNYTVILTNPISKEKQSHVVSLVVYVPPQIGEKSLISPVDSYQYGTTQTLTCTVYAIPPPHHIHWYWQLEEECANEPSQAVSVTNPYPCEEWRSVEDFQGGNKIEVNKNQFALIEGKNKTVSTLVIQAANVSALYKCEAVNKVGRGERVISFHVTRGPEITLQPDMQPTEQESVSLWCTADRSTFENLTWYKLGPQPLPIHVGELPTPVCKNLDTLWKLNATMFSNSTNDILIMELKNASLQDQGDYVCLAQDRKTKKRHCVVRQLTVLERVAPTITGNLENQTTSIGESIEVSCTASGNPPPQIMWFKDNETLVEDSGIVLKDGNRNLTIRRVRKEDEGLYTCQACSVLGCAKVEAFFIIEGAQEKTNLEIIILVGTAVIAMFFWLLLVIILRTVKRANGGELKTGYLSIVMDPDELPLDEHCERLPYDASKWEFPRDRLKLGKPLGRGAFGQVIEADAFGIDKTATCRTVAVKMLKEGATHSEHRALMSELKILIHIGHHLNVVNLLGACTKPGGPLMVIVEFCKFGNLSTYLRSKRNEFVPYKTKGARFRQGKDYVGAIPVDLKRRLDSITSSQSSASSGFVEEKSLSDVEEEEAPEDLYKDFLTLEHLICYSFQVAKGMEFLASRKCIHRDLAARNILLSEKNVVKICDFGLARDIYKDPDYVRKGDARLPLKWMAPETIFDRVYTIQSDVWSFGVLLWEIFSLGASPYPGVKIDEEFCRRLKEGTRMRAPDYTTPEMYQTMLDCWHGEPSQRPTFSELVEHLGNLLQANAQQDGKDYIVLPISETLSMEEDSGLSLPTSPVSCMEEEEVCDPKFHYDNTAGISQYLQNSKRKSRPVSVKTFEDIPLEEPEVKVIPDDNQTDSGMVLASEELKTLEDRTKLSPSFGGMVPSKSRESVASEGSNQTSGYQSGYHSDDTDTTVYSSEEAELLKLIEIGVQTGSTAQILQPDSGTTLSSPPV
# Biological target: Vascular endothelial growth factor receptor 2 (Homo sapiens, UniProt P35968)
smiles,measurement,value
NS(=O)(=O)c1ccc(NC(=O)Nc2nc(-c3ccccc3)n(-c3ccc(F)cc3)n2)cc1,IC50,26.3 nM
